# PubChem BioAssay AID1259421 (Broad Institute, 2018)
# Several values for one entry are separate records, joined by “and”; a condition that tells them apart may be missing. Equal entries are not always repeated. The entries are a selection whose mix differs from that of the whole data set. Activity calls are given as the source filed them. Cut-off read from the data, not from the text of the source: active = activity change below about -70%; inconclusive = no clear call, values can overlap the other calls; inactive = above that.
# Test: T. gondii ME49Luc in HeLa cells, luciferase assay, 72 h, no IFN-y (AID 1259421)
# Settings: hits give low values, concentration not given here
row,Structure (SMILES),"activity change, negative = inhibition"
1,CCC(=O)N(c1ccccc1)C1(COC)CCN(CCc2cccs2)CC1,inactive: 24%
2,CN(CCCl)CCCl,inactive: -34.7% and inactive: 15.1%
